{
  "source": "patent EP2411506B1",
  "about": "“TUMOR SUPPRESSION USING HUMAN PLACENTA-DERIVED INTERMEDIATE NATURAL KILLER CELLS AND IMMUNOMODULATORY COMPOUNDS” (Celularity, Inc., priority 2009, dated 2010)",
  "test_system": "colorectal carcinoma cell line HCT-116",
  "conditions": "ex vivo cultured (day 19) PINK cells pre-treated for 24 hours, then co-cultured with HCT-116; untreated PINK cells 24.3%",
  "data": [
    {"smiles": "Nc1cccc2c1C(=O)N(C1CCC(=O)NC1=O)C2=O", "note": "(racemic) [pomalidomide, 4-amino-2-[(3RS)-2,6-dioxopiperidin-3-yl)-1H-isoindole-1,3(2H)-dione]", "values": [
      {"measurement": "cytotoxicity", "value": 47.4, "unit": "%"}
    ]}
  ]
}
